# scFv variants of Ab-14 (light chain) against a SARS-CoV-2 spike peptide

Target: peptide PDVDLGDISGINAS, taken from heptad repeat 2 (HR2) of SARS-CoV-2 spike.

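Phage display of a naive human antibody library on the peptide gave the parent. The variants were designed computationally from a first round of random CDR variants and then made and measured. Several design methods are mixed in this list. Affinity was read by AlphaSeq, a pooled yeast mating assay with surface-displayed partners. Pairs that bind mate more often; barcode pairs of the diploids are counted by sequencing. Read counts were normalised to the haploid input and turned into Kd by a linear fit to BCL2-family pairs of known affinity, for each replicate. There are six technical replicates.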

The variants keep the heavy chain, the linker and the frameworks of Ab-14 (scFv order VH, the linker GGGGSGGGGSGGGGS, VL).
VH: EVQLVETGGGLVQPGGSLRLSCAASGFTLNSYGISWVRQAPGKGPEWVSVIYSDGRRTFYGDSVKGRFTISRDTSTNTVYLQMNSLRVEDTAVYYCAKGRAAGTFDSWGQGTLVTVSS
VL: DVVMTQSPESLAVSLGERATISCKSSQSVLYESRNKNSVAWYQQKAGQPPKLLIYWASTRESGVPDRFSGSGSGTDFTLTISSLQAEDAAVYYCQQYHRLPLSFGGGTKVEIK

Variants are written as CDR1, CDR2 and CDR3 of the light chain (limits as in the source). Parent: KSSQSVLYESRNKNSVA, WASTRES, QQYHRLPLS.
Variants here have more than six changes.
The read-out is the apparent dissociation constant on a log10 scale (nM): the lower, the stronger.
"nd" means that the variant was in the library but no mating with the target was seen in that replicate; the authors take this as a sign of poor binding, and no number exists.

CDR-L1,CDR-L2,CDR-L3,log10 Kd (nM) by replicate
TISQMTSWMSNKKANVA,EVSLREE,QQYDRLPLS,1.31 / 1.97 / 0.86 / 0.99 / 0.76 / 1.12
HMSMLTMMGMRQRNSVA,QMTMREN,QQYDRLPLI,2.13 / nd / nd / 1.52 / 2.38 / 1.32
KLSQSVLFWGHAINSVA,EMETREE,QQYDRLPLS,1.89 / 1.86 / 1.75 / 1.53 / 2.45 / 2.24
TLYGLSMSMSKNKNNVA,EMSTREN,QQYDRLPLI,nd / 0.26 / 1.66 / 1.21 / nd / 1.18
KLQMSEGYESRNKNSVA,EASTRCD,QQYHRLPLS,0.10 / -0.44 / 0.00 / -0.36 / -0.28 / 0.08
KLFDETSSEQVNARAVA,DSLTVHE,QQYHMLPLS,2.28 / 1.77 / 1.34 / 1.85 / 1.34 / 1.85
KVQMSWLMSSRNKNQVA,HASMRES,QQYHRLPLS,0.36 / 0.39 / 0.28 / 0.54 / 0.71 / 0.70
KMEQGWLYESRNKGSVA,GASVRES,QQYHRLPLS,0.58 / 0.15 / 0.10 / 0.12 / 0.24 / 0.36
MISQLYNMGQFAINSVA,QASERNN,QQYDRLPLM,2.48 / nd / 1.15 / nd / nd / nd
KLETSVLGESRNKNAVA,SASQREQ,QQYHRLPLS,-0.27 / -0.61 / -0.77 / -0.78 / -0.62 / -0.41
KSEQSSPYEDRNKNSVA,NASLRCS,QQYHRLPLS,0.48 / 0.45 / 0.23 / 0.05 / 0.09 / 0.41
HITYGMMVAGRHSKSIA,QAEERAK,QQYDRLPLI,1.14 / 1.54 / 0.91 / 0.97 / 1.35 / 0.89
KLSSHYFESYGERQAVA,ENEATMN,QQYHLLPLS,2.20 / 1.09 / 1.18 / 1.06 / 1.31 / 1.06
NITGMVEEKGTTTKNIA,EGEFRCG,QQYSRLPLS,0.52 / 1.03 / 0.36 / 1.00 / 0.82 / 1.00
HMSMLTLQGMRARNSVA,QMTTREN,QQYDRLPLS,0.47 / 0.83 / 0.53 / 0.82 / 0.83 / 0.74
KVSPSMLGEQRNKNSVA,SASTREN,QQYHRLPLS,0.31 / 0.02 / 0.28 / -0.07 / 0.12 / 0.20
MISQLFMYGSRNYNSVA,QASTRES,QQYDHLPLI,0.90 / 1.34 / 0.32 / 1.64 / 1.66 / 2.35
KSEQLVDYKDRNSNSVA,NASTRES,QQYHRLPLS,1.07 / 1.48 / 1.29 / 1.58 / 1.18 / 1.95
HISQMWMLETKNKNNVA,EESTRED,QSYFRLPLS,0.30 / 0.27 / 0.06 / 0.02 / 0.34 / 0.42
KQDQSDWLQSRNVNSVA,QASTRES,QQYHRLPLS,0.84 / 0.01 / 0.37 / 0.37 / 0.48 / 0.33
TISQMYNMGQFAINSVA,QASERNE,QQYDRLPLQ,0.49 / 0.24 / 0.33 / 0.20 / 0.36 / 0.44
KISQMFNVGTKNTNSLA,EMNTRGA,QHYHRLPLS,2.00 / 1.44 / 2.81 / 2.20 / 3.05 / 1.62
KISMLINMTFEQSNNVA,EMATREQ,QQYNRLPLS,nd / 1.01 / 1.42 / 1.70 / 2.43 / 2.07
QINHFGLSANLNSKNVA,AKNLRVD,QQYNRLPLS,-0.01 / -0.03 / 0.00 / -0.33 / -0.17 / -0.21
KLSTITGHMSVSKNNVA,EMETREK,QQYDRLPLS,1.25 / 0.80 / 0.53 / 1.74 / 1.40 / 1.17
KLMPSHLYESRNSNSVA,NASYREQ,QQYHRLPLS,0.50 / 0.23 / 0.32 / -0.02 / 0.18 / 0.43
VLEQSTLYESRNKNSVA,NASQRER,QQYHRLPLS,-0.28 / -0.47 / -0.42 / -0.41 / -0.46 / -0.27
KLMQEWEYQSRMKNSVA,HASERES,QQYHRLPLS,0.32 / 0.23 / 0.23 / 0.24 / 0.47 / 0.43
HIDQYTSYDNGEDRAIA,DVTIKDY,QQYARLPLL,2.15 / 0.76 / 1.23 / 2.31 / 1.88 / 1.65
KVSEFMKGLMMRKDSIA,DNNTRNS,QQYDRLPLS,1.99 / 4.72 / 4.40 / nd / nd / nd
HISEMIFAQMKARNSVA,ENNTRED,QQYDRLPLS,3.06 / 1.51 / 2.24 / 2.15 / 4.35 / 2.56
QFHQGMIGDQRNVHSIA,NAQAAVP,QYYFRLPLS,0.93 / 0.81 / 0.66 / 0.52 / 1.29 / 0.33
KLGATMNTEMTKRNNVA,DLVEREN,QQYFRLPLS,0.40 / -0.23 / -0.14 / -0.18 / -0.10 / -0.13
TISQLHNMGTFAINSVA,QAEIRNA,QQYDRLPLI,0.89 / 0.88 / 1.31 / 1.04 / 1.33 / 0.87
TIGAQLMYGMRQRSNVA,EVSERLN,QQYDRLPLL,0.86 / 1.58 / 0.92 / 1.28 / 0.66 / 1.56
HMSALTLGGVRARNSVA,QMTTREN,QQYDRLPLA,0.43 / 0.79 / -0.05 / 0.74 / 0.79 / 1.32
KLHQSQGYESRNINSVA,NASQRCS,QQYHRLPLS,0.28 / 0.24 / -0.14 / 0.00 / 0.10 / 0.21
KLSMSYRYESQEKNSIA,EMSTREE,QSYHRLPLS,3.45 / 1.75 / 1.41 / 0.86 / 1.85 / nd

The closing 6 entries, repeated:

CDR-L1	CDR-L2	CDR-L3	log10 Kd (nM) by replicate
KLGATMNTEMTKRNNVA	DLVEREN	QQYFRLPLS	0.40 / -0.23 / -0.14 / -0.18 / -0.10 / -0.13
TISQLHNMGTFAINSVA	QAEIRNA	QQYDRLPLI	0.89 / 0.88 / 1.31 / 1.04 / 1.33 / 0.87
TIGAQLMYGMRQRSNVA	EVSERLN	QQYDRLPLL	0.86 / 1.58 / 0.92 / 1.28 / 0.66 / 1.56
HMSALTLGGVRARNSVA	QMTTREN	QQYDRLPLA	0.43 / 0.79 / -0.05 / 0.74 / 0.79 / 1.32
KLHQSQGYESRNINSVA	NASQRCS	QQYHRLPLS	0.28 / 0.24 / -0.14 / 0.00 / 0.10 / 0.21
KLSMSYRYESQEKNSIA	EMSTREE	QSYHRLPLS	3.45 / 1.75 / 1.41 / 0.86 / 1.85 / nd

The range of this assay differs from that of the first round, and the authors advise against merging the two.
As a blank, each scFv also met three strains without target: over all light chain designs, 4% of these pairings were detected, typically at 2.64 and seldom below 1.59.
In the paper, a design with two or fewer of six values counts as a poor binder.
Of ten entries with the parent sequence, four were seen in most replicates (averages 0.34 to 2.37), three in one and three in none, so single entries are noisy.

Values reported by Li et al. 2023, doi:10.1038/s41467-023-39022-2 (FLAb copy).